Measured values taken from PubChem BioAssay (NCI).
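Growth conditions: 96-well plates. Treatment: test compound, 48 hours, 5 concentrations. Analysis: linear interpolation between bracketing concentrations; unreached endpoints set to highest concentration. Abbreviation: GI50, concentration required for 50% inhibition of growth. TGI: total growth inhibition.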

What was measured:
Test in all cases: NCI anticancer screen, dose series, 48 h; in the data active means GI50 below about 0.43 µM; inactive means the rest
[1] = system: 786-0 renal
[2] = system: A498 renal
[3] = system: A549 NSCLC
[4] = system: ACHN renal
[5] = system: BT-549 breast
[6] = system: CAKI-1 renal
[7] = system: CCRF-CEM leukemia
[8] = system: COLO 205 colon
[9] = system: DU-145 prostate
[10] = system: EKVX NSCLC
[11] = system: HCC-2998 colon
[12] = system: HCT-116 colon
[13] = system: HCT-15 colon
[14] = system: HL-60(TB) leukemia
[15] = system: HOP-62 NSCLC
[16] = system: HOP-92 NSCLC
[17] = system: HS 578T breast
[18] = system: HT29 colon
[19] = system: IGROV1 ovarian
[20] = system: K-562 leukemia
[21] = system: KM12 colon
[22] = system: LOX IMVI melanoma
[23] = system: M14 melanoma
[24] = system: MALME-3M melanoma
[25] = system: MCF7 breast
[26] = system: MDA-MB-231 breast
[27] = system: MDA-MB-435
[28] = system: MDA-N
[29] = system: MOLT-4 leukemia
[30] = system: NCI-H226 lung
[31] = system: NCI-H23 lung
[32] = system: NCI-H322M lung
[33] = system: NCI-H460 lung
[34] = system: NCI-H522 lung
[35] = system: NCI/ADR-RES ovarian
[36] = system: OVCAR-3 ovarian
[37] = system: OVCAR-4 ovarian
[38] = system: OVCAR-5 ovarian
[39] = system: OVCAR-8 ovarian
[40] = system: PC-3 prostate
[41] = system: RPMI-8226 leukemia
[42] = system: RXF 393 renal
[43] = system: SF-268 CNS
[44] = system: SF-295 CNS
[45] = system: SF-539 CNS
[46] = system: SK-MEL-2 melanoma
[47] = system: SK-MEL-28 melanoma
[48] = system: SK-MEL-5 melanoma
[49] = system: SK-OV-3 ovarian
[50] = system: SN12C renal
[51] = system: SNB-19 CNS
[52] = system: SNB-75 CNS
[53] = system: SR leukemia
[54] = system: SW-620 colon
[55] = system: T-47D breast
[56] = system: TK-10 renal
[57] = system: U251 CNS
[58] = system: UACC-257 melanoma
[59] = system: UACC-62 melanoma
[60] = system: UO-31 renal

NC1CCCCC1.NP(=O)(O)N(CCCl)CCCl
inactive: GI50 [1] 67.4 µM | GI50 [2] > 100 µM | GI50 [3] 93.7 µM | GI50 [4] 9.84 µM | GI50 [5] > 100 µM | GI50 [6] 28.8 µM | GI50 [7] 36.5 µM | GI50 [8] > 100 µM | GI50 [9] 51.1 µM | GI50 [10] > 100 µM | GI50 [11] > 100 µM | GI50 [12] > 100 µM | GI50 [13] > 100 µM | GI50 [14] 39 µM | GI50 [15] 64.8 µM | GI50 [16] 98.9 µM | GI50 [17] > 100 µM | GI50 [18] > 100 µM | GI50 [19] > 100 µM | GI50 [20] > 100 µM | GI50 [21] > 100 µM | GI50 [22] 69.3 µM | GI50 [23] 62.6 µM | GI50 [24] > 100 µM | GI50 [25] 58.2 µM | GI50 [26] > 100 µM | GI50 [27] > 100 µM | GI50 [28] > 100 µM | GI50 [29] 6 µM | GI50 [30] > 100 µM | GI50 [31] 45.5 µM | GI50 [32] > 100 µM | GI50 [33] 4.07 µM | GI50 [34] 75.5 µM | GI50 [35] > 100 µM | GI50 [36] > 100 µM | GI50 [37] > 100 µM | GI50 [38] > 100 µM | GI50 [39] > 100 µM | GI50 [40] > 100 µM | GI50 [41] > 100 µM | GI50 [42] > 100 µM | GI50 [43] 80.9 µM | GI50 [44] 66.5 µM | GI50 [45] > 100 µM | GI50 [46] > 100 µM | GI50 [47] > 100 µM | GI50 [48] > 100 µM | GI50 [49] 89.9 µM | GI50 [50] 53.5 µM | GI50 [51] 83.6 µM | GI50 [52] > 100 µM | GI50 [53] 4.9 µM | GI50 [54] 70.9 µM | GI50 [55] > 100 µM | GI50 [56] > 100 µM | GI50 [57] 83.3 µM | GI50 [58] 99.5 µM | GI50 [59] 73.4 µM | GI50 [60] 60.3 µM
52.7 µM: TGI [33]
> 100 µM: TGI [1] | TGI [2] | TGI [3] | TGI [4] | TGI [5] | TGI [6] | TGI [7] | TGI [8] | TGI [9] | TGI [10] | TGI [11] | TGI [12] | TGI [13] | TGI [14] | TGI [15] | TGI [16] | TGI [17] | TGI [18] | TGI [19] | TGI [20] | TGI [21] | TGI [22] | TGI [23] | TGI [24] | TGI [25] | TGI [26] | TGI [27] | TGI [28] | TGI [30] | TGI [31] | TGI [32] | TGI [34] | TGI [35] | TGI [36] | TGI [37] | TGI [38] | TGI [39] | TGI [40] | TGI [41] | TGI [42] | TGI [43] | TGI [44] | TGI [45] | TGI [46] | TGI [47] | TGI [48] | TGI [49] | TGI [50] | TGI [51] | TGI [52] | TGI [53] | TGI [54] | TGI [55] | TGI [56] | TGI [57] | TGI [58] | TGI [59] | TGI [60]
66.1 µM: TGI [29]
